Experimental data: PubChem BioAssay AID624172 (National Center for Advancing Translational Sciences (NCATS), 2012)
Only a part is listed here, and it is no random draw. Some salts or complexes appear as unconnected parts, following the source record. The source made the active and inactive calls. The call rests on the fitted dose curve; in most records, active means well fitted activation curve with a large enough effect; inconclusive means small, poorly fitted or top-dose-only effect; inactive means no such curve, though single readings can be large or run the other way.
Further: % of control where 0% means no effect.

The chains behind the UniProt entries cited, without tags or fusion partners. Where a name states a change or a piece, a line headed by the entry shows the natural chain unless it says otherwise.
UniProt P43220, whole entry, stated change not applied: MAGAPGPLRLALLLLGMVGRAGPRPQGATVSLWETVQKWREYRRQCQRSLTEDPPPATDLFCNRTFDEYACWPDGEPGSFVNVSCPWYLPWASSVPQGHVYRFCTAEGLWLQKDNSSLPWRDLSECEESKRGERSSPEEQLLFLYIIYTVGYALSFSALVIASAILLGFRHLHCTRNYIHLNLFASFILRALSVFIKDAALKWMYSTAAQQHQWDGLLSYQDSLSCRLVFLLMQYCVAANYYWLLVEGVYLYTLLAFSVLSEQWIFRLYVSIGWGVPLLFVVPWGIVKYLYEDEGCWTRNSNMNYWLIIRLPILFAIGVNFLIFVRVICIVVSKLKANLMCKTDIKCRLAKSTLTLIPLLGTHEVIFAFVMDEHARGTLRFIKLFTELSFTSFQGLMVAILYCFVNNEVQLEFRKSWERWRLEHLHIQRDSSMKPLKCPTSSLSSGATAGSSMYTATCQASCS

The compounds below were run against Glucagon-like peptide 1 receptor (Homo sapiens) (UniProt P43220) (assay: qHTS of GLP-1 Receptor Agonists). Conditions: HEK293 GLP-1R CRE-luciferase, luminescence, 4-6 h, cells express a hypersensitive GLP-1R form; at 45.6 µM (top of the series).
Excerpt: The overall goal of this project was to develop a novel assay for discovering small molecule ligands for class B1 G protein-coupled receptors (GPCRs). Very few agonists (or inverse agonists) with generally weak activity for this entire group of physiologically important receptors are known to date. To establish proof-of-principle that this critical bottleneck can be overcome with a suitable screening approach, our studies focused on the class B1 receptor for glucagon-like peptide-1 (GLP-1R), a potential therapeutic target for diabetes and neurodegenerative disease.
The assay was developed in a "mix and measure" format using a cell-based functional readout. Toward this goal, stably transfected HEK293 cell clones were established that co-express (i) a cAMP-responsive luciferase reporter gene, and (ii) GLP-1Rs that upon ligand interaction either stimulate (agonists) or inhibit (inverse agonists) luciferase activity. In different cell lines to be used for screening, expressed GLP-1Rs are specifically optimized for high sensitivity detection of either weak agonists (hypersensitive receptor) or inverse agonists (constitutively active receptor mutant). In addition, control cell lines were developed that express either the cAMP-responsive reporter gene without recombinant GLP-1Rs (enabling initial exclusion of GLP-1R independent effects of candidate probes), or the reporter gene together with wild type GLP-1Rs (for confirmation of probe activity at this receptor), or the reporter gene in combination with the constitutively active orphan receptor GPR119 (enabling initial exclusion of GLP-1R independent inhibitory effects of candidate inverse agonists).
To that end, this assay was optimized for 1536-well format and screened against the MLSMR.
NIH Molecular Libraries Probe Production Network [MLPCN]
NIH Chemical Genomics Center [NCGC]
PI Name: Martin Beinborn, Tufts Medical Center
In a white solid 1536-well plate, 6 uL of cells are dispensed in DMEM without phenol red, 10% Nu serum, and 1% pen-strep medium. The plates are then incubated for 12 hours at 37 deg C at 5% CO2 before 23 nL of compounds are added. After a 4-6 hr incubation at37 deg C and 5% CO2, 3 uL of detection reagent are added and after a 12 min incubation at RT, a luminescent read is obtained on the ViewLux.
With `O=C(OC1CN2CCC1CC2)c1ccc([N+](=O)[O-])cc1` (stereo unspecified) the activation was inactive: 5.53%.
With `CN1CCC(Nc2cccc(F)c2)CC1` the activation was inactive: -0.68%.
With `O=C(NCC1(N2CCCCC2)CCCCC1)c1cncc(Br)c1` the activation was inactive: -6.57%.
For `COc1ccc2c(c1O)-c1c(O)c(OC)cc3c1[C@H](C2)[N+](C)(C)CC3.O=[N+]([O-])c1cc([N+](=O)[O-])c([O-])c([N+](=O)[O-])c1[O-]`, the activation was inactive: -4.28%.
`O=[N+]([O-])c1cc([N+](=O)[O-])c(Nc2ccc(Cl)cc2)c([N+](=O)[O-])c1` was tested, and the activation was inactive: -2.97%.
For `COc1ccc(C(c2nnnn2C2CCCC2)N2CCC(n3c(=O)[nH]c4ccccc43)CC2)cc1` (stereo unspecified), the activation was inactive: -6.08%.
With `O=C(NCC1(N2CCOCC2)CCCCC1)c1ccccc1Br` the activation was inactive: 10.7%.
For `CCCOc1ccc(C(=O)NCC2(N(C)C)CCCCC2)cc1OC`, the activation was inactive: 14.1%.
In the case of `Cc1ccc(C(=O)NCC2(N(C)C)CCCCC2)o1`, the activation is reported as inactive: 2.31%.
In the case of `COc1ccc(C(=O)NCC2(N3CCCCC3)CCCCC2)c(OC)c1OC`, the activation is reported as inactive: -8.05%.
With `CC(C)(C)OC(=O)N1CCC(N(C(=O)c2ccccc2)c2ccc(F)cc2)CC1` the activation was inactive: 1.09%.
For `CCC(c1nnnn1C1CCCC1)N1CCC(n2c(=O)[nH]c3ccccc32)CC1` (stereo unspecified), the activation was inactive: -2.54%.
With `COc1ccc(C(=O)NCC2(N3CCCCC3)CCCCC2)cc1` the activation was inactive: 1.87%.
For `CCCCn1nnnc1C(CC)N1CCC(n2c(=O)[nH]c3ccccc32)CC1` (stereo unspecified), the activation was inactive: 3.19%.
In the case of `O=C(NCC1(N2CCCCC2)CCCCC1)c1cccs1`, the activation is reported as inactive: 5.51%.
`CCCCn1nnnc1C(c1cccs1)N1CCC(n2c(=O)[nH]c3ccccc32)CC1` (stereo unspecified) was tested, and the activation was inactive: -5.08%.
With `O=C(NCC1(N2CCCCC2)CCCCC1)c1ccc(=O)[nH]c1` the activation was inactive: -0.316%.
`Cc1cccc(NC2(C#N)CCN(Cc3ccccc3)CC2)c1` was tested, and the activation was inactive: -0.0878%.
`CSc1ccccc1C(=O)NCC1(N2CCCCC2)CCCCC1` was tested, and the activation was inactive: 10.9%.
For `Cc1cc(C)cc(N(C(=O)c2ccccc2)C2CCN(C(=O)OC(C)(C)C)CC2)c1`, the activation was inactive: 16.9%.
With `O=C(NCC1(N2CCCCC2)CCCCC1)c1ccc(Cl)nc1` the activation was inactive: 6.4%.
With `O=c1[nH]c2ccccc2n1C1CCN(C(c2ccccc2OC(F)(F)F)c2nnnn2C2CCCCC2)CC1` (stereo unspecified) the activation was inactive: 3.38%.
`O=C(NCC1(N2CCOCC2)CCCCC1)c1cc2ccccc2o1` was tested, and the activation was inactive: -0.855%.
`COc1ccc(Cl)cc1C(=O)NCC1(N2CCOCC2)CCCCC1` was tested, and the activation was inactive: -0.944%.
With `O=C1C(O)=C([N+](=O)[O-])C(=O)C(O)=C1[N+](=O)[O-]` the activation was inactive: -1.81%.
In the case of `O=C(NCC1(N2CCCCC2)CCCCC1)c1ccc(Cl)s1`, the activation is reported as inactive: -19.1%.
With `N#CC1(Nc2ccccc2)CCN(Cc2ccccc2)CC1` the activation was inactive: -8.6%.
`O=C(OC1CN2CCC1CC2)C1c2ccccc2Oc2ccccc21` (stereo unspecified) was tested, and the activation was inactive: -2.27%.
In the case of `O=c1[nH]c2ccccc2n1C1CCN(C(c2cc3ccccc3o2)c2nnnn2C2CCCCC2)CC1` (stereo unspecified), the activation is reported as inactive: -1.69%.
`CCCCn1nnnc1C(c1ccc(OC)cc1)N1CCC(n2c(=O)[nH]c3ccccc32)CC1` (stereo unspecified) was tested, and the activation was inactive: -1.92%.
For `CCOC(=O)N1CCC(Nc2ccc(OC)cc2)CC1`, the activation was inactive: -0.291%.
For `O=C1CCN(Cc2ccccc2)CC1`, the activation was inactive: -3.55%.
With `O=C(NCC1(N2CCOCC2)CCCCC1)c1ccc(Cl)cc1` the activation was inactive: -6.97%.
In the case of `CC(C)(C)n1nnnc1C(c1ccccc1)N1CCC(n2c(=O)[nH]c3ccccc32)CC1` (stereo unspecified), the activation is reported as inactive: 5.37%.
In the case of `CCOc1ccc(C)cc1CN(CCCl)CCCl`, the activation is reported as inactive: -1.7%.
In the case of `COc1ccccc1C(=O)NCC1(N2CCOCC2)CCCCC1`, the activation is reported as inactive: -2.32%.
In the case of `COc1ccc(NC2CCN(CCc3ccccc3)CC2)c(OC)c1`, the activation is reported as inactive: 31.7%.
With `CCOC(=O)N1CCC(Nc2ccc(F)cc2)CC1` the activation was inactive: -5.63%.
`CCCCn1nnnc1C(c1cc2ccccc2o1)N1CCC(n2c(=O)[nH]c3ccccc32)CC1` (stereo unspecified) was tested, and the activation was inactive: 8.71%.
For `O=P1(N(CCCl)CCCl)SCCCS1`, the activation was inactive: 8.86%.
`CCCCOc1ccc(C(=O)NCC2(N3CCOCC3)CCCCC2)cc1` was tested, and the activation was inactive: 15.8%.
With `O=C(NCC1(N2CCCCC2)CCCCC1)c1ccc(F)cc1` the activation was inactive: 5.47%.
With `O=c1[nH]c2ccccc2n1C1CCN(C(c2ccccc2)c2nnnn2C2CCCCC2)CC1` (stereo unspecified) the activation was inactive: -0.612%.
In the case of `CCOC(=O)N1CCC(Nc2cccc(C)c2)CC1`, the activation is reported as inactive: -6.64%.
`COc1cc(C(=O)NCC2(N(C)C)CCCCC2)ccc1OC(F)F` was tested, and the activation was inactive: 14.3%.
For `O=c1[nH]c2ccccc2n1C1CCN(C(c2cccc3ccccc23)c2nnnn2C2CCCC2)CC1` (stereo unspecified), the activation was inactive: -5.67%.
For `CCC(c1nnnn1C1CCCCC1)N1CCC(n2c(=O)[nH]c3ccccc32)CC1` (stereo unspecified), the activation was inactive: 1.05%.
In the case of `COc1cccc(C(c2nnnn2C2CCCCC2)N2CCC(n3c(=O)[nH]c4ccccc43)CC2)c1OC` (stereo unspecified), the activation is reported as inactive: -5.56%.
With `CC(=O)N(c1ccccc1)C1CCNCC1` the activation was inactive: 9.43%.
With `COc1cc(OC)cc(C(=O)NCC2(N3CCCCC3)CCCCC2)c1` the activation was inactive: 2.71%.
For `O=c1[nH]c2ccccc2n1C1CCN(C(c2ccnc3ccccc23)c2nnnn2C2CCCCC2)CC1` (stereo unspecified), the activation was inactive: 3.14%.
